Binding of CDR-mutated scFvs to a peptide of the spike HR2 region

The measurements come from Li et al. 2023 (doi:10.1038/s41467-023-39022-2) through the FLAb antibody collection.

Binding partner: SARS-CoV-2 spike HR2 peptide, sequence PDVDLGDISGINAS.

Parent scFv Ab-14: VH joined to VL by a 15-residue (Gly4Ser)3 linker. Changes lie in the heavy chain CDRs alone.
VH: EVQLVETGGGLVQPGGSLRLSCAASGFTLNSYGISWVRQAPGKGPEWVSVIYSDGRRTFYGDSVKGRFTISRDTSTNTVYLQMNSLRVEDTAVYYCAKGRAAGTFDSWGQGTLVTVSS
VL: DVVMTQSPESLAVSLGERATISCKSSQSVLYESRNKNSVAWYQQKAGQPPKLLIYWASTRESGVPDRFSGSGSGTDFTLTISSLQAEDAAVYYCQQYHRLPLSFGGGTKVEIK

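The parent was found by panning a naive human phage display library on the peptide. These sequences belong to a second round, designed from the earlier measurements on random variants of the parent. Their group label is 14H_GP_HC (GP: Gaussian process model; HC: hill climbing; a sequence that several methods proposed may carry one label only). Affinity was read by AlphaSeq, a pooled yeast mating assay with surface-displayed partners. After mating in shaken culture at 30 °C for 16 h, diploids were selected and their barcode pairs sequenced. Read counts were normalised to the haploid input and turned into Kd by a linear fit to BCL2-family pairs of known affinity, for each replicate. Mating was done six times.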

The parent's heavy chain CDRs are GFTLNSYGIS, VIYSDGRRTFYGDSVK, GRAAGTFDS; each variant's own CDRs replace them letter for letter. Values are log10 of the apparent Kd in nM; lower means stronger binding. Replicates are averaged; those with no signal do not enter the mean. Where no diploid with the target was found in that replicate, the entry reads "ND": below detection, most likely a poor binder, though not proof of it. The authors averaged sequences with at least three values out of six and counted those with two or fewer as poor binders.

| CDR-H1 | CDR-H2 | CDR-H3 | log10 Kd, replicates | mean, log10 nM | signal with controls |
|---|---|---|---|---|---|
| SFTLNSYGIS | VIYADGRRTFYGDSVK | GWAAGTFKS | ND / ND / ND / ND / ND / ND | ND | 0/18 |
| GFTLNSYGIS | VIYSDGRRTFYDDDVK | GQEAGTFDS | 1.38 / ND / 1.53 / ND / 2.67 / ND | 1.86 | 0/18 |
| GFQLKSYGIS | VIYSDGRRTFYGDSVK | GRAAGTFDS | ND / ND / ND / ND / ND / ND | ND | 0/18 |
| GFDLNSYGIS | VIYSDGRRTFYGDSVK | GRAAGRFWS | 0.45 / 0.30 / -0.22 / 0.02 / -0.10 / 0.39 | 0.14 | 0/18 |
| GFQLNEYGIS | VIYADGRRTFYGDSVK | GRAAGTFIS | ND / ND / ND / ND / ND / ND | ND | 1/18 (0.13) |
| GFDLNSYGIS | VIYSDGRRTFYGDSVK | GRAAWTFNQ | ND / ND / ND / ND / ND / ND | ND | 0/18 |
| GFTLNSYGIS | VIYSDGRRTFYQDSVK | GQLAGTFDD | -0.09 / 0.11 / 0.02 / 0.89 / 0.22 / 0.45 | 0.27 | 0/18 |
| GFTLNEYGIS | VIYSDGRRTFYTDSVK | GHTAGTFDS | 0.25 / 0.09 / 0.25 / 0.12 / -0.08 / 0.15 | 0.13 | 0/18 |
| GFTLNDYGIS | VIYSDGRRTFYADSVK | GRAAGTFDE | 0.47 / 0.35 / 0.33 / 0.35 / 0.16 / 0.61 | 0.38 | 0/18 |
| RFTLNEYGIS | VIYSDGRRTFYTDSVK | GRNAGTFDS | 0.05 / -0.18 / -0.09 / -0.31 / 0.09 / -0.40 | -0.14 | 0/18 |
| GFTLNEYGIS | VIYSDGRRTFYGDSVK | GRAAETFDQ | ND / ND / 2.96 / ND / ND / ND | 2.96 | 0/18 |
| GFTLNQYGIS | VIYSDGRRTFYSDSVK | GQVAGTFDS | 0.04 / 0.06 / -0.01 / -0.45 / -0.24 / -0.37 | -0.16 | 0/18 |
| GFQLNDYGIS | VIYSDGRRTFYGDSVK | GKAAGTFDS | 0.86 / 0.47 / 0.99 / 0.70 / 0.66 / 0.80 | 0.75 | 2/18 (2.22) |
| GFTLNSYGIS | VIYSDGRRTFYSDSVK | GVAVGTFDS | ND / ND / ND / ND / ND / ND | ND | 2/18 (2.01) |
| GFGLNEYGIS | VIYSDGRRTFYTDSVK | GQAAGTFDS | 0.34 / -0.18 / -0.20 / -0.26 / 0.01 / -0.05 | -0.06 | 0/18 |
| GFLLNEYGIS | VIYSDGRRTFYKDSVK | GRAAGTFDS | ND / ND / ND / ND / 1.70 / ND | 1.70 | 0/18 |
| GFDLNEYGIS | VIYSDGRRTFYDDSVK | GRFAGTFDS | -0.13 / -0.36 / 2.51 / 0.37 / 0.14 / -0.20 | 0.39 | 0/18 |
| GETLNSYGIS | VIYADGRRTFYSDSVK | GQAAGTFDS | 1.86 / 1.57 / 0.94 / 0.71 / 4.38 / 1.82 | 1.88 | 0/18 |
| GFWLNDYGIS | VIYSDGRRTFYADSVK | GRAAGTFDE | ND / 1.05 / ND / ND / ND / ND | 1.05 | 0/18 |
| GFTLESYGIS | VIYSDGRRTFYDDSVK | GKLAGTFDS | 1.01 / 1.13 / 1.59 / 1.91 / 1.33 / 1.30 | 1.38 | 0/18 |
| GFWLNEYGIS | VIYSDGRRTFYTDSVK | GREAGTFDV | 0.97 / 0.17 / 0.58 / 0.88 / 0.52 / 0.68 | 0.63 | 1/18 (3.83) |
| GFTLNSYGIS | VIYSDGRRTFYDDSVK | GAVAGTFDS | 1.07 / 0.72 / 0.69 / 0.43 / 1.05 / 1.02 | 0.83 | 0/18 |
| GFTLNSYGIS | VIYSDGRRTFYDDNVK | GKLAGTFDS | 2.68 / 1.90 / 2.03 / 1.90 / ND / 2.31 | 2.16 | 0/18 |
| GFDLNSYGIS | VIYSDGRRTFYGDSVK | GRAAGCFRS | ND / ND / ND / ND / ND / ND | ND | 1/18 (2.39) |
| GFDLNSYGIS | VIYSDGRRTFYGDSVK | GRTAATFNS | ND / ND / ND / ND / ND / ND | ND | 0/18 |
| GFQLNSYGIS | VIYSDGRRTFYVDSVK | GHAAGTFDS | ND / ND / ND / ND / 0.42 / ND | 0.42 | 0/18 |
| GFTLNEYGIS | VIYSDGRRTFYGDSVK | GRAAGTFMC | ND / ND / ND / ND / ND / ND | ND | 0/18 |
| GFQLNEYGIS | VIYSDGRRTFYGDSVK | GREAGTFDV | 0.08 / 0.40 / -0.34 / -0.39 / -0.18 / 0.17 | -0.04 | 1/18 (2.18) |
| GFTLNEYGIS | VIYSDGRRTFYGDSVK | GRAAGTFCV | ND / ND / ND / ND / ND / ND | ND | 1/18 (0.46) |
| GFTLNSYGIS | VIYSDGRRTFYADSVK | GRAAVTFDS | 2.57 / 1.09 / 2.10 / 2.54 / 2.92 / 2.02 | 2.21 | 0/18 |

The closing 3 entries, repeated:

CDR-H1	CDR-H2	CDR-H3	log10 Kd, replicates	mean, log10 nM	signal with controls
GFQLNEYGIS	VIYSDGRRTFYGDSVK	GREAGTFDV	0.08 / 0.40 / -0.34 / -0.39 / -0.18 / 0.17	-0.04	1/18 (2.18)
GFTLNEYGIS	VIYSDGRRTFYGDSVK	GRAAGTFCV	ND / ND / ND / ND / ND / ND	ND	1/18 (0.46)
GFTLNSYGIS	VIYSDGRRTFYADSVK	GRAAVTFDS	2.57 / 1.09 / 2.10 / 2.54 / 2.92 / 2.02	2.21	0/18

Values of this round are not directly comparable with the first-round values of the same sequences. Empty control strains, which show no peptide, gave a signal in 1% of pairings with all heavy chain designs; the median was 2.08 and 95% of these signals were weaker than 0.84. No background was subtracted. The control count says in how many pairings with the empty strains this scFv gave a signal, with their mean in brackets.